# Details: oral, in drinking water, vs controls on untreated water ad libitum
# Method: Mouse lines and husbandry—C57BL/6J-Pde6α^nmf363/nmf363, with a D670G mutation, herein referred to as Pde6α^D670G, mice were obtained from the Jackson Laboratory (Bar Harbor, ME, USA). Pde6α^D670G are co-isogenic in the C57BL/6J (B6) background; therefore, age-matched B6 mice were used as experimental controls. Mice were bred and maintained at the facilities of Columbia University and Stanford University. Animals were kept on a light-dark cycle (12 hour-12 hour). Food and water were available ad libitum throughout the experiment, whether treated or untreated. Dark-raising was performed under 24 hr dark cycle following approved institutional guidelines. […] All water bottles were covered in foil to reduce light exposure and changed weekly during the duration of the experiment following approved institutional guidelines.
smiles,measurement,value
"O=C(O)CCC(=O)C(=O)O [alpha-ketoglutarate, Alpha-ketoglutaric acid]",size and weight of treated mice (side effect),smaller in size and weight than controls

# — patent US12558336B2, “Metabolic rescue of retinal degeneration” (The Board of Trustees of the Leland Stanford Junior …, priority 2019, dated 2026)
